According to ChEMBL document CHEMBL1811821, “Cystic fibrosis: a new target for 4-Imidazo[2,1-b]thiazole-1,4-dihydropyridines” (J Med Chem, 2011):

species on record: Cavia porcellus; test: Negative ionotropic activity in potassium depolarized guinea pig longitudinal smooth muscle assessed as inhibition of calcium-induced contraction at 5 X 10^-6 M; assay type: functional

In order of falling inhibition:
1. COC(=O)C1=C(C)NC(C)=C(C(=O)OC)C1c1c(Cl)nc2scc(C)n12  97%
2. C=CCOC(=O)C1=C(C)NC(C)=C(C(=O)OCC=C)C1c1c(-c2cc(OC)ccc2OC)nc2sccn12  96%
3. COC(=O)C1=C(C)NC(C)=C(C(=O)OC)C1c1c(C)nc2sc(Cl)cn12  96%
4. CCOC(=O)C1=C(C)NC(C)=C(C(=O)OCC)C1c1c(Cl)nc2sc(C)cn12  94%
5. COC(=O)C1=C(C)NC(C)=C(C(=O)OC)C1c1c(-c2ccccc2OC)nc2sccn12  88%
